Measured values as given in patent publication US20100310640A1.

Target: T1, HLA-DR DRB4*0101 (human)
T1 chain 1: not shown
T1 chain 2: not shown
Assay: radiolabeled-peptide inhibition, purified HLA-DR
Settings: remark: other sources report otherwise

B1: 9019.0048 (peptide)
peptide: PESFDGDPASNTAPL
Question: For B1, which IC50 is on record?
Answer: Its IC50 is 654 nM.
